The results in this text go back to patent US6861431B2, “Compounds capable of modulating the activity of multidrug transporters and therapeutic use of the same” (The Board of Trustees of the University of Illinois, priority 2001, dated 2005).

The test system of this test is ConA cells. As to the kind of experiment: Drug sensitivity (growth inhibition) assay, ConA cells. Format: cell-based, mouse. Conditions: Compound 102 (10 μM), fold resistance.

The structures appear in SMILES notation.

Take `COc1cc2c(c(OC)c1OC)-c1ccc(OC)c(=O)cc1[C@@H](NC(C)=O)CC2` [Colchicine, colchicine]: the “Change in sensitivity (x-fold)” value is 1 x-fold.
